# Tested on: oocyte-containing follicles in ovaries
# Assay: Bone marrow transplantation (BMT) in adult wild-type female mice sterilized by cyclophosphamide and busulphan; ovarian follicle analysis
substance,measurement,setting,value
cyclophosphamide and busulphan,mice completely lacking immature oocytes,"60 days after busulfan and cyclophosphamide on day 42 postpartum, without subsequent BMT, n=5",4 of the 5
same,immature oocytes or follicles detected in the ovaries,"two months after 120 mg kg^-1 cyclophosphamide and 12 mg kg^-1 busulphan alone, no BMT","very few, if any, immature oocytes or follicles were detected"
